Protein sequences, listed by entry. Tags and fused reporters are not part of them.
UniProt P49327, whole entry: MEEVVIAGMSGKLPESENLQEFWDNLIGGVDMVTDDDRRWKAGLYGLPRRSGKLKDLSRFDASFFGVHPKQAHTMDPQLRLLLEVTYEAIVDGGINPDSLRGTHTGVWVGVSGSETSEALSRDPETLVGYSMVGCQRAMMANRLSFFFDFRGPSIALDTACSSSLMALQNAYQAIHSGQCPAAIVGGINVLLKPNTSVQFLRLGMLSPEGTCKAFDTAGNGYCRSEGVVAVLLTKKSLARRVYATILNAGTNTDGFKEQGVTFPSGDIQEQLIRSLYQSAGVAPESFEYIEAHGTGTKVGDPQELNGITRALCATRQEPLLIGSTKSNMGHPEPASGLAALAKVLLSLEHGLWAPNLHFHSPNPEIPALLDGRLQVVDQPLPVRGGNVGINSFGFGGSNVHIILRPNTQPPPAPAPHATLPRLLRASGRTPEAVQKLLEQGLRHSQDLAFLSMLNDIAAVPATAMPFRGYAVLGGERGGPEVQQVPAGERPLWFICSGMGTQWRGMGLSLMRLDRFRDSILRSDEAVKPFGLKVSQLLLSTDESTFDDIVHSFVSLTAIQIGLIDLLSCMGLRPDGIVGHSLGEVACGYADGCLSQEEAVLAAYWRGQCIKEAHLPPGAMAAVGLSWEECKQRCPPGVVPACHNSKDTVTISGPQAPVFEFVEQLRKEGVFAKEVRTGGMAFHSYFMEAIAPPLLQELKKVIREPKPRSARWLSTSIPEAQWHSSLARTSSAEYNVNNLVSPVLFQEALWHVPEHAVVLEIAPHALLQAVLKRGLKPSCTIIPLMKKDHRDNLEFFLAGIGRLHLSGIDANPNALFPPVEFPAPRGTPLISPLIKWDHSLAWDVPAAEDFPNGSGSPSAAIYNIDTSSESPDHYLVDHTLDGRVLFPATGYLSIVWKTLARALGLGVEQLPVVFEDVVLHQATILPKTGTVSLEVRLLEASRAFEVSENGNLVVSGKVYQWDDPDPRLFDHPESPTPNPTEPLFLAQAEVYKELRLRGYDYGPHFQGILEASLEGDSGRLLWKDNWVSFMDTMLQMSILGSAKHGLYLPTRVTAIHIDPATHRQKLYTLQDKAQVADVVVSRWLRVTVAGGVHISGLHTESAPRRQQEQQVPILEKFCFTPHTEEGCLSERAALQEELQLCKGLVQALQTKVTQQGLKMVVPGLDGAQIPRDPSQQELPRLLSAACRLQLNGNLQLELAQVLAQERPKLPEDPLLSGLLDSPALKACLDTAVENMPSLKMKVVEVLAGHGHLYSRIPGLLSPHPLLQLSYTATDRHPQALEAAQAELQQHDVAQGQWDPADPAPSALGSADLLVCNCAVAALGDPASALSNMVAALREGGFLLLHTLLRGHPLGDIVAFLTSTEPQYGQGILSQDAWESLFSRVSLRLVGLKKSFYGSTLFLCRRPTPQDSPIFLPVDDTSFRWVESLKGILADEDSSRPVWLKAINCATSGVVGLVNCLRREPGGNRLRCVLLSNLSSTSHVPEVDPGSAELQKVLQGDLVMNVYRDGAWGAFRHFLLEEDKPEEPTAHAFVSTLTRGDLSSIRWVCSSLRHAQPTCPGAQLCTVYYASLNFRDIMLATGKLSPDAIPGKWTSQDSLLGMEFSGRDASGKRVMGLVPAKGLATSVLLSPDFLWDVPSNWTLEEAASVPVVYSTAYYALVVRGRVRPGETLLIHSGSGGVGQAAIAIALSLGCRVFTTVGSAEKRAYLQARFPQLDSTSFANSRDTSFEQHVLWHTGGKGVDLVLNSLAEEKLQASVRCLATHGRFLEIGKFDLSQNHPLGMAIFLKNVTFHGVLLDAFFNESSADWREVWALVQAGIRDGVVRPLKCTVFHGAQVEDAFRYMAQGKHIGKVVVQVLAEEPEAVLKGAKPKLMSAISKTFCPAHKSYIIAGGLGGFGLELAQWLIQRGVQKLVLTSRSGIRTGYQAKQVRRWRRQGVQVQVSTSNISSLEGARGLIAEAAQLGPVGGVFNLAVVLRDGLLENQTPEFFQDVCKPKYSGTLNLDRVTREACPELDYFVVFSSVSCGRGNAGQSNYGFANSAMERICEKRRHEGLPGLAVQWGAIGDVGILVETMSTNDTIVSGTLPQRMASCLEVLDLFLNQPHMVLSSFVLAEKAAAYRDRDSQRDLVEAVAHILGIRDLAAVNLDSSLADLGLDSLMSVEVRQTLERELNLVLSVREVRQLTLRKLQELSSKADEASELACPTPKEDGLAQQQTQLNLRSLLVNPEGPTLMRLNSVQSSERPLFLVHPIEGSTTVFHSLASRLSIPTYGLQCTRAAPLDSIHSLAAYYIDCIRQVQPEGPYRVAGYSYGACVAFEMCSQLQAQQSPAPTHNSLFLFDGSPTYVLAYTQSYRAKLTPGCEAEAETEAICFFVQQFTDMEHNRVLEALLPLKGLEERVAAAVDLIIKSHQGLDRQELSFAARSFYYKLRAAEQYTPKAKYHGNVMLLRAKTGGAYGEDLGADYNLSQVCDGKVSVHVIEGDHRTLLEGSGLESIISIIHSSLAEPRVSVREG

In patent publication US9718813B2, “Imidazolin-5-one derivative useful as FASN inhibitors for the treatment of cancer” (Janssen Pharmaceutica, NV, priority 2013, dated 2017):

Tests used:
[1] = molecular target: hFASN enzyme (full length) (Homo sapiens (Human), UniProt P49327); test: Fatty Acid Synthase (FASN) Inhibition Scintillation Proximity Assay; assay type: biochemical; conditions: 3H-acetyl-CoA and malonyl-CoA substrates, SPA, mean if tested more than once
Method: In this assay, inhibition of FASN activity is measured using ^3H-acetyl-CoA and malonyl-CoA as substrates. ^3H-Acetyl CoA is converted to ^3H-palmitate through a series of reactions by the FASN protein, which contains 7 functional domains and carries out 7 enzymatic reactions to ultimately produce ^3H-palmitate. The assay principle is based upon the fact that ^3H-acetyl-CoA is hydrophilic and the end product, ^3H-palmitate is hydrophobic.
10 μL assay buffer (100 mM KH2PO4 pH 7.5, 1 mM DTT) (20 μL in blanks) was added to a 384-well white Opti Plate plate (Perkin Elmer). 0.9 μL test compound (at concentrations of 30 μM, 10 μM, 3 μM, 1 μM, 0.30 μM, 0.10 μM, 0.03 μM and 0.01 μM)/DMSO and 10 μL hFASN enzyme (full length, 300 ng, purified in house) or 10 μL assay buffer was added to the wells. […] The reaction was stopped by adding 20 μL Streptavidin coupled imaging beads (25 mg/ml). After incubation for 30 minutes at room temperature in the dark, the 384 well plate was centrifuged at 1500 rpm for 3 minutes and was measured after at least 24 hrs by the LEADseeker™, measuring emission using a 610±20 nm pass filter.
(§1) Raw data generated by the instrument were normalized to % Controlmin values, which were calculated as: % Controlmin=100*(x−mLC)/(mHC−mLC)
where mLC and mHC were the means of the low control wells and high control wells on the plate, after manual exclusion of outliers. […]

[2] = molecular target: FASN Keto-reductase Domain (hFASN enzyme, full length) (Homo sapiens (Human), UniProt P49327); test: Fatty Acid Synthase Keto-reductase Domain (FASN KR) Inhibition; assay type: biochemical; conditions: NADPH oxidation at 340 nm, ethyl acetoacetate substrate
Method: After 20 minutes incubation at room temperature the plate was measured again (T2).
The decrease in absorbance was calculated as (Absorbance before incubation T1)−(Absorbance following incubation T2).
as §1
where mLC and mHC were the means of the low control wells and high control wells on the plate, after manual exclusion of outliers. A plot of Controlmin versus test compound concentration was fitted to a 4-parameter logistic curve using a non-linear least squares regression method.

Structure (SMILES) | Human FASN pIC50 [1] | FASN Keto-reductase Domain pIC50 [2]
CC1(C)N=C(c2ccc(-c3cnc4ccccc4c3)cc2F)N(CC2CN(C(=O)C3CC3)C2)C1=O [Compound 20, 1-((1-(cyclopropanecarbonyl)azetidin-3-yl)methyl)-2-(2-fluoro-4-(quinolin-3-yl)phenyl)-4,4-dimethyl-1H-imidazol-5(4H)-one] | 5.70 | –
Cn1ncc2cc(-c3ccc(C4=NC(C)(C)C(=O)N4C[C@@H]4CCN(C(=O)C5CC5)C4)c(F)c3)ccc21 [Compound 53, (R)-1-((1-(cyclopropanecarbonyl)pyrrolidin-3-yl)methyl)-2-(2-fluoro-4-(1-methyl-1H-indazol-5-yl)phenyl)-4,4-dimethyl-1H-imidazol-5(4H)-one] | – | 6.49
CC1(C)N=C(c2ccc(-c3nc4ccccc4[nH]3)cc2F)N(CC2CN(C(=O)C3CC3)C2)C1=O [Compound 60, 2-(4-(1H-benzo[d]imidazol-2-yl)-2-fluorophenyl)-1-((1-(cyclopropanecarbonyl)azetidin-3-yl)methyl)-4,4-dimethyl-1H-imidazol-5(4H)-one] | 5.32 | –
